{"source": "the supplement of paper PMC4683952", "note": "Most of the hits are listed elsewhere, so they are rarer here than in the full data. Rule as the data show it: all actives reach 1.3 or more but so do some inactives.", "data": [{"system": "Lgr5 (MarsCy1-Lgr5-EGFP, U2OS)", "experiment": "cell-surface Lgr5 expression (SCi1 fluorescence, background-subtracted) relative to WT DMSO (fold of DMSO control); higher = more Lgr5 at the plasma membrane, active = hit call of the paper", "conditions": "U2OS MarsCy1-Lgr5-EGFP stable; treatment time: overnight; 16 µM; library: Johns Hopkins Clinical Compound Library", "values": [{"smiles": "c1ccc2cccc-2cc1", "note": "[Azulene (Sodium gualenate)]", "cell-surface Lgr5 expression": "inactive: 1.16"}]}]}
